The nature of test [1]: Selectivity ratio of Ki for human dopamine D2 receptor to Ki for rat dopamine D4 receptor.
Test [2] in a line: Selectivity ratio of Ki for human dopamine D3 receptor to Ki for rat dopamine D4 receptor.

In the case of `Fc1ccc2c(c1)CC(CCN1CCN(c3ccc(Cl)cc3)CC1)C2` (centres undefined), the Ratio Ki stood at 109 in test [1] and 213 in test [2].
The corresponding values for `Fc1ccc(OCCCN2CCN(c3ccc(Cl)cc3)CC2)cc1` are 56.5 and 128.

For the origin of these results see ChEMBL document CHEMBL3286287, “Identification of a new selective dopamine D4 receptor ligand” (Bioorg Med Chem, 2014).
